This passage reports inhibition results from PubChem BioAssay AID1209 (Sanford-Burnham Center for Chemical Genomics, 2008).

Amino acid sequences for entries named in this document (tags omitted).
UniProt P34949, whole entry: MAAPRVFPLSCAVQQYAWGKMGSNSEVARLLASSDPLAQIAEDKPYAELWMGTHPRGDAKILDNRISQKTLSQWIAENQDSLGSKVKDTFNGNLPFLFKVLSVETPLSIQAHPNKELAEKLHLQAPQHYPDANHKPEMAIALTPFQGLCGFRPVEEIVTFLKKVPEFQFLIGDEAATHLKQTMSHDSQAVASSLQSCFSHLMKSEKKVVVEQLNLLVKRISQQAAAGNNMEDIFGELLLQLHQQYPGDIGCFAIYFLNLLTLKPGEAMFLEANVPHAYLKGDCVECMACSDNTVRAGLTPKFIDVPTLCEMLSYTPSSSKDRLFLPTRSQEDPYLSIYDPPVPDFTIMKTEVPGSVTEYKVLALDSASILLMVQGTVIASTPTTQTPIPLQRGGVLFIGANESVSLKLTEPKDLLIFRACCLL

One may read the inhibition as the change of the read-out against control, counted positive when it falls.

Only a part is listed here, and it is no random draw. Activity calls are given as the source filed them. Rule as the data show it: active = inhibition above about 50%; inactive = the rest.

The target of the assay is Mannose-6-phosphate isomerase (Homo sapiens) (UniProt P34949). The experiment in a line: MPI enzyme activity inhibition – biochemical, fluorescence intensity, coupled assay, primary screen (AID 1209).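 Also: plate controls were DMSO vehicle for no effect and wells lacking substrate for full effect.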 Particulars: purified PMI enzyme, at 20 µM, hits give high values.
Regarding `CC(C)c1ccc(OP(C)(=O)Nc2ccc(SC(F)(F)F)cc2)cc1` (centres undefined), the inhibition was inactive: 35%. Then `CP(=O)(Nc1ccccc1F)Oc1ccccc1` (centres undefined), with inactive: 1%; and `O=C(OCCN1CCN(CCOCc2ccccc2)CC1)C(O)(c1ccccc1)c1ccccc1`, with inactive: -31.4%; and `COc1ccc(OP(C)(=O)Nc2ccc(SC(F)(F)F)cc2)cc1` (centres undefined), with inactive: -8.4%. `CCOC(=O)c1ccc(NP(C)(=O)Oc2ccc(F)cc2)cc1` (centres undefined): the inhibition was inactive: 3%. In the case of `CCN(CC)CCCOC(=O)C(O)(c1ccccc1)C1CCCCC1` (centres undefined), the inhibition is inactive: -16.5%. Consider `CP(=O)(Nc1ccccc1)Oc1ccc(F)cc1` (centres undefined), for which the inhibition was inactive: 1.3%. Then `COc1ccc(OP(C)(=O)Nc2cccc(Br)c2)cc1` (centres undefined), with inactive: -2.7%; and `COc1ccc(NP(C)(=O)Oc2ccccc2OC)cc1` (centres undefined), with inactive: -1.3%. Take `CN(C)CCOC(=O)C(O)(c1ccccc1)C1CCCCC1` (centres undefined): the inhibition is inactive: -0.6%. In the case of `O=[N+]([O-])c1cc([N+](=O)[O-])c(NCC2CCS(=O)(=O)C2)c([N+](=O)[O-])c1` (centres undefined), the inhibition was inactive: 5.5%. Then `CCOP(C)(=S)SCC(=O)NC(C)(CC)C(=O)O` (centres undefined), with inactive: 13.1%; and `CP(=O)(Nc1ccc2c(c1)OCCO2)Oc1ccccc1` (centres undefined), with inactive: -3.6%. Turning to `Cc1ccccc1NP(C)(=O)Nc1ccccc1C`, the inhibition was inactive: 8.4%. The same measure for `COc1ccc(OP(C)(=O)Nc2ccc(Br)cc2)cc1` (centres undefined): inactive: 2.1%. The same measure for `CCN(CC)CC(O)COC(=O)C(O)(c1ccccc1)C1CCCCC1` (centres undefined): inactive: -1.3%.

Regarding `CCc1ccc(OP(C)(=O)Nc2cccnc2)cc1` (centres undefined), the inhibition is inactive: -5.7%. Then `CP(=O)(Oc1ccccc1)N1CCOC1=O` (centres undefined), with inactive: -3.3%; and `COc1ccccc1OP(C)(=O)Nc1c(C)n(C)n(-c2ccccc2)c1=O` (centres undefined), with inactive: 1.8%; and `CP(=O)(Nc1ccc(Cl)cc1)Oc1ccc(F)cc1` (centres undefined), with inactive: 7.1%.

Turning to `COc1ccccc1OP(C)(=O)Nc1ccccc1Br` (centres undefined), the inhibition was inactive: -5.5%. Then `CC(C)(C)c1ccc(OP(C)(=O)O)cc1`, with inactive: 1.7%; and `CN(C)C(=O)c1c([N+](=O)[O-])cc([N+](=O)[O-])cc1[N+](=O)[O-]`, with inactive: 6.6%. Then `CP(=O)(OC12CC3CC(CC(C3)C1)C2)OC12CC3CC(CC(C3)C1)C2`, with inactive: 4.5%; and `CCOC(=O)c1ccc(NP(C)(=O)Oc2ccc(Cl)cc2)cc1` (centres undefined), with inactive: 6%; and `Cc1cc(C)cc(OP(C)(=O)Nc2cccc(C(F)(F)F)c2)c1` (centres undefined), with inactive: 14.4%.

On to `COc1ccc(OP(C)(=O)Nc2ccccc2Br)cc1` (centres undefined), for which the inhibition is inactive: -4%. With `COc1ccccc1OP(C)(=O)Nc1ccc(C)c(C)c1` (centres undefined), the inhibition is inactive: -8.5%. For the molecule `CP(=O)(Nc1ccc(Cl)cc1Cl)Oc1ccccc1` (centres undefined), the inhibition was inactive: 1.7%. Then `CP(=O)(OCCOc1ccccc1)OCCOc1ccccc1`, with inactive: -0.3%; and `CN(C)CCOC(=O)C(O)(c1ccccc1)C1CCCC1` (centres undefined), with inactive: -9%. On to `COc1ccc(OP(C)(=O)Nc2ccccn2)cc1` (centres undefined), for which the inhibition is inactive: 0.9%. `Cc1c(NP(C)(=O)Oc2ccc(C(C)C)cc2)c(=O)n(-c2ccccc2)n1C` (centres undefined): the inhibition is inactive: -19.9%.

Regarding `O=[N+]([O-])c1cc([N+](=O)[O-])c(Nc2ccccn2)c([N+](=O)[O-])c1`, the inhibition was inactive: 47%. Then `CCc1ccc(OP(C)(=O)O)cc1`, with inactive: 3.7%; and `COc1ccccc1OP(C)(=O)Nc1ccc(C)cc1C` (centres undefined), with inactive: 5.2%; and `CP(=O)(Nc1ccccn1)Oc1ccccc1` (centres undefined), with inactive: 9.2%. As to `CCN(CC)CCCOC(=O)C(O)(c1ccccc1)c1ccccc1`, the inhibition is inactive: -9%. Then `Cc1cccc(C)c1OP(C)(N)=O` (centres undefined), with inactive: -51.3%; and `CC(C)(C)c1ccc(OP(C)(=O)Nc2ccc(SC(F)(F)F)cc2)cc1` (centres undefined), with inactive: 22%. The same measure for `O=[N+]([O-])c1ccc2c(c1)C=Nc1ccccc1O2`: active: 71%.

With `CCOC(=O)c1ccc(NP(C)(=O)Oc2ccccc2)cc1` (centres undefined), the inhibition was inactive: 3.4%. `Cc1ccc(NP(C)(=O)Oc2ccccc2)c(C)c1` (centres undefined): the inhibition is inactive: 1.1%. Then `COc1ccccc1OP(C)(=O)Nc1ccc(C)cc1` (centres undefined), with inactive: 7.3%; and `COc1ccc(OP(C)(=O)Nc2cccc(F)c2)cc1` (centres undefined), with inactive: 4.8%. Consider `COc1ccccc1OP(C)(=O)Nc1cc(Cl)ccc1C` (centres undefined), for which the inhibition was inactive: 4.3%. The same measure for `Cc1cc(C)cc(OP(C)(N)=O)c1` (centres undefined): inactive: 1.1%. The same measure for `CP(=S)(Nn1cnnc1)Oc1ccccc1` (centres undefined): inactive: 10.4%. With `COc1ccccc1OP(C)(=O)Nc1ccccc1` (centres undefined), the inhibition was inactive: -3.4%. Turning to `CP(=O)(Nc1ccccc1Br)Oc1ccccc1` (centres undefined), the inhibition was inactive: -7.5%.

Consider `CP(=O)(Oc1ccccc1)OC(c1ccccc1)C(F)(F)F` (centres undefined), for which the inhibition is inactive: -2.2%. The same measure for `Cc1cccc(C)c1OP(C)(=O)Nc1ccc(SC(F)(F)F)cc1` (centres undefined): inactive: 28.5%; for `Cc1cc(C)cc(OP(C)(=O)Nc2ccc(SC(F)(F)F)cc2)c1` (centres undefined): inactive: 17.3%. For `CP(=O)(NC(=O)Nc1ccccc1)Oc1ccccc1` (centres undefined), the inhibition is inactive: -2.2%. Take `CCOP(C)(=S)SCC(=O)NC(C)C(=O)O` (centres undefined): the inhibition is inactive: 11.2%. As to `CCOC(=O)c1ccc(NP(C)(=O)Oc2ccc(OC)cc2)cc1` (centres undefined), the inhibition was inactive: -2.6%. Regarding `CP(=O)(Nc1ccccn1)Oc1ccc(Cl)cc1` (centres undefined), the inhibition was inactive: 2.7%. Take `O=[N+]([O-])c1cc([N+](=O)[O-])c(-n2nnc3ccccc32)c([N+](=O)[O-])c1`: the inhibition is inactive: -4%. Then `Cc1nc2ccc3ccccc3c2s1.O=[N+]([O-])c1cc([N+](=O)[O-])c(O)c([N+](=O)[O-])c1`, with inactive: -3.5%.

On to `CN1CCCCC1COC(=O)C1(O)c2ccccc2CCc2ccccc21` (centres undefined), for which the inhibition was inactive: 9.9%. Then `COc1ccccc1OP(C)(=O)Nc1c(C)cccc1C` (centres undefined), with inactive: -10.1%.

As to `CCCOc1ccc(NP(C)(=O)Oc2ccc(Cl)cc2)cc1` (centres undefined), the inhibition was inactive: 7.1%. Take `CP(=O)(Nc1ccc(SC(F)(F)F)cc1)Oc1ccccc1` (centres undefined): the inhibition was inactive: 6%. Consider `CC1=NCCc2c1[nH]c1ccccc21.O=[N+]([O-])c1cc([N+](=O)[O-])c(O)c([N+](=O)[O-])c1`, for which the inhibition is inactive: 4.8%. `Cc1cc(C)cc(OP(C)(=O)Nc2ccc(C)cc2C)c1` (centres undefined): the inhibition was inactive: 9%. Then `CCOC(=O)c1ccc(NP(C)(=O)Oc2cc(C)cc(C)c2)cc1` (centres undefined), with inactive: 4%. Then `Cc1cc(C)cc(OP(C)(=O)Nc2ccccn2)c1` (centres undefined), with inactive: 0.8%; and `CP(=O)(Nc1cccc(Br)c1)Oc1ccccc1` (centres undefined), with inactive: 8.2%. With `Cc1ccc(C)c(NP(C)(=O)Oc2ccccc2)c1` (centres undefined), the inhibition was inactive: 1.7%.
